The chains behind the UniProt entries cited, without tags or fusion partners.
UniProt P08753, whole entry, looked up: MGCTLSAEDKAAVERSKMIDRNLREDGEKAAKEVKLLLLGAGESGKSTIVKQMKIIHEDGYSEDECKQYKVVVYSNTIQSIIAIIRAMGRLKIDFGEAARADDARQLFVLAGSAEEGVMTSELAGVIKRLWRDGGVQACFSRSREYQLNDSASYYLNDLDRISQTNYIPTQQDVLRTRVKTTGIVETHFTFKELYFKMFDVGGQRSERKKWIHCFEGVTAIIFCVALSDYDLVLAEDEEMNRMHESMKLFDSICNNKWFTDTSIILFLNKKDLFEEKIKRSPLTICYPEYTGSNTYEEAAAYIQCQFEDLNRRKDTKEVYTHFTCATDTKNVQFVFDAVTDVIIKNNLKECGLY

About 880 (0.42%) of roughly 210,000 compounds were called active.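 The calls were made as follows: active = replicate mean at 85% of control or lower with very high polarization wells dropped (limit read from the data); inactive = the rest.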 What follows is part of a selection rich in actives, with near analogues and random picks from the rest.
These compounds were tested against Guanine nucleotide-binding protein G(i) subunit alpha-3 (Rattus norvegicus) (UniProt P08753) (assay: disruptors of GIV-Galphai3 protein-protein interaction – biochemical, fluorescence polarization, FITC-GIV GBA peptide, rat Galphai3, primary screen (AID 1224905;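 also: lower values mean more displacement of the GIV peptide from Galpha-i3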)). Conditions: Galpha-i3/FITC-GIV peptide fluorescence polarization, 90 min; hits give low values; scaled: aluminum fluoride 0%, vehicle 100%.
With COc1ccc(-c2ocnc2C(=O)O)cc1 the percent of control (FP) was 108% (inactive).
COc1cccc(N=Nc2c(O)[nH]c(=O)[nH]c2=O)c1 was tested, and the percent of control (FP) was 100% (inactive).
In the case of COc1ccc(N=Nc2c(-c3ccc(OC)cc3)[nH]oc2=O)cc1, the percent of control (FP) is reported as 49% (active).
With Cc1ccc(-c2nnc3ccccc3c2C(=O)Nc2ccc3c(c2)OCCO3)cc1 the percent of control (FP) was 101% (inactive).
In the case of COC(=O)/C=C1\Nc2ccccc2SC1=O, the percent of control (FP) is reported as 103% (inactive).
O=C1c2ccccc2S(=O)(=O)N1CC(O)COc1ccc2ccccc2c1 (stereo not given) was tested, and the percent of control (FP) was 103% (inactive).
C/C(=N\c1nc2ccccc2n1C)c1cc(Cl)ccc1O was tested, and the percent of control (FP) was 49.3% (active).
With Cn1c(NC(=O)c2ccccc2)nc2ccccc21 the percent of control (FP) was 97.8% (inactive).
With Cn1c(=O)c(C(=O)NCCc2ccc(Cl)cc2)nc2ccccc21 the percent of control (FP) was 105% (inactive).
In the case of Cn1cc(C(=O)Nc2ccc(Br)cc2)c2[nH]c(=O)n(-c3ccccc3)c(=O)c21, the percent of control (FP) is reported as 101% (inactive).
COc1ccc(NC(=O)c2nn(C)c3c2CSc2ccc(Cl)cc2-3)cc1OC was tested, and the percent of control (FP) was 102% (inactive).
For COc1ccc(NC(=O)C2CCN(S(=O)(=O)c3cc4c(cc3C)NC(=O)CO4)CC2)cc1OC, the percent of control (FP) was 98% (inactive).
O=S(=O)(c1ccccc1Cl)N1CCN(c2ncnc3c2nnn3-c2ccc(F)cc2)CC1 was tested, and the percent of control (FP) was 98.7% (inactive).
For Cc1cc(C)c2c(n1)sc1c(=O)n(C)cnc12, the percent of control (FP) was 103% (inactive).
For COc1ccc(-c2cc(-c3nc4c5sc6nc(C)cc(C)c6c5ncn4n3)[nH]n2)cc1, the percent of control (FP) was 102% (inactive).
With Cc1cc(C)c2c(N)c(-c3n[nH]c(=S)n3C)sc2n1 the percent of control (FP) was -53.5% (active).
With Cc1ccc(N2C(=O)C3C4c5ccccc5C(C=O)(c5ccccc54)C3C2=O)c(Br)c1 (stereo not given) the percent of control (FP) was 123% (inactive).
For COCCNC(=O)c1ccccc1NC(=O)c1ccc(F)cc1, the percent of control (FP) was 104% (inactive).
In the case of COC(=O)CN1C(c2ccccc2)=Nc2ccc(Br)cc2C1c1ccccc1 (stereo not given), the percent of control (FP) is reported as 107% (inactive).
With COc1ccc(CNS(=O)(=O)c2ccc(F)c(C(=O)Nc3ccc(Br)cc3F)c2)cc1 the percent of control (FP) was 111% (inactive).
In the case of Cc1nn(CC(=O)NCCc2c[nH]c3ccccc23)c(=O)c2noc(C)c12, the percent of control (FP) is reported as 98.7% (inactive).
For O=C(NCCc1c[nH]c2ccccc12)c1cc(=O)nc2sc(N3CCCC3)nn12, the percent of control (FP) was 106% (inactive).
N#C/C(=C/c1ccc(N2CCCCC2)o1)C(=O)NCCc1c[nH]c2ccccc12 was tested, and the percent of control (FP) was -90.3% (active).
With CCCCN(CC)c1ncnc2ccc(C)cc12 the percent of control (FP) was 101% (inactive).
With Cc1ccc2nc(/C(C#N)=C/c3ccccc3F)[nH]c2c1 the percent of control (FP) was 113% (inactive).
Cc1ccc2nc(/C(C#N)=C/c3ccc(-c4ccc(C(=O)OC(C)C)cc4)o3)[nH]c2c1 was tested, and the percent of control (FP) was -57.6% (active).
With N#CC(C#N)=Cc1ccc(-c2cccc(C(=O)O)c2)o1 the percent of control (FP) was 102% (inactive).
With O=C(OCCN1CCCCC1)C1COc2ccccc2O1 (stereo not given) the percent of control (FP) was 102% (inactive).
In the case of CC1CN(S(=O)(=O)c2ccc3c4c(cccc24)C(=O)N3)CC(C)O1 (stereo not given), the percent of control (FP) is reported as 96.8% (inactive).
Nc1ccc2c3c(cccc13)C(=O)NC2=O was tested, and the percent of control (FP) was -7.99% (active).
For CN(Cc1ccccc1)S(=O)(=O)c1ccc2c3c(cccc13)C(=O)N2, the percent of control (FP) was 104% (inactive).
C#CCSc1c(CCCC)cnc2c1c(=O)n(C)c(=O)n2C was tested, and the percent of control (FP) was 106% (inactive).
With COC(CNC(=O)c1cn(C)c2ccc(S(=O)(=O)N3CCCC3)cc2c1=O)OC the percent of control (FP) was 106% (inactive).
For CCOc1ccc(/C(O)=C2/C(=O)C(=O)N(CCN3CCOCC3)C23C(=O)N(C)c2ccccc23)cc1 (stereo not given), the percent of control (FP) was 107% (inactive).
In the case of Cc1cc(Br)ccc1NC(=O)Cn1c2ccccc2c(=O)c2ccccc21, the percent of control (FP) is reported as 99.8% (inactive).
With CCN1C(=O)c2cccc3c(S(=O)(=O)N4CCc5ccccc54)ccc1c23 the percent of control (FP) was 101% (inactive).
With CCN1C(=O)c2cccc3c(S(=O)(=O)N4CCN(CCO)CC4)ccc1c23 the percent of control (FP) was 108% (inactive).
For CCN1C(=O)c2cccc3c(NC(=S)NC(=O)c4ccccc4)ccc1c23, the percent of control (FP) was -23.8% (active).
For Cc1cc(C)n(C(=O)c2sccc2S(=O)(=O)N(C)c2ccc(C)c(Cl)c2)n1, the percent of control (FP) was 95.4% (inactive).
O=C(NCC(c1ccccc1Cl)N1CCCC1)c1cc(-c2ccccc2)on1 (stereo not given) was tested, and the percent of control (FP) was 113% (inactive).

Source: PubChem BioAssay AID1224905 (ICCB-Longwood Screening Facility, Harvard Medical School, 2016)
